Results from patent US8778970B2, “Benzyl piperidine compound” (Dainippon Sumitomo Pharma Co., Ltd, priority 2009, dated 2014).

Sequences of proteins named here, by UniProt entry; tags and fusion partners are left off.
UniProt P10635, whole entry: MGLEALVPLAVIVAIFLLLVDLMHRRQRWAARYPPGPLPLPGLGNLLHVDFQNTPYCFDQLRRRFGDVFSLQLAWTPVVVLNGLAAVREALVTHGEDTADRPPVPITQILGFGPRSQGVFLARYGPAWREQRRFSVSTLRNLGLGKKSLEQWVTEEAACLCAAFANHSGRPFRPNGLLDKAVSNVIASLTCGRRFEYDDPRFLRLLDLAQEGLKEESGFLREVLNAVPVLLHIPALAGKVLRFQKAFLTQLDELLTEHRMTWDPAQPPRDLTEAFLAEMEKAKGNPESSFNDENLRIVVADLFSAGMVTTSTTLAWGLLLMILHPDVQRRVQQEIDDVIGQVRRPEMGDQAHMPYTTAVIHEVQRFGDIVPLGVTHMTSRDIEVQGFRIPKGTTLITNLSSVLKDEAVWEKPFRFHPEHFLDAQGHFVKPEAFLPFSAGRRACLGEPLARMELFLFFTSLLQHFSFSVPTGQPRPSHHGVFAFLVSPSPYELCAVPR

Columns and labels:
CYP2D6 [1] = target: T1, CYP2D6 (Homo sapiens (Human), UniProt P10635); assay: Screening test on contribution ratio of CYP2D6 in human liver microsomal metabolism; assay type: in vitro ADME; details: 1 mg/mL human liver microsomes, 1 μM test substance, with/without 4 μM quinidine; values marked *) are reference values due to relative stability
Method: Screening Test on Contribution Ratio of CYP2D6 in Human Liver Microsomal Metabolism
0.2 mL of a 50 mM potassium phosphate buffer (pH 7.4) containing 3 mM (final concentration) NADPH (manufactured by Oriental Yeast Co., Ltd.), 1 mg/mL human liver microsomes (manufactured by Xenotech, LLC) and 1 μM test substance was warmed in a water bath at 37° C. for metabolic reaction. After 15- or 30-minute reaction, the reaction was terminated by the addition of a 3-fold volume of methanol with respect to the reaction solution and subsequent stirring. This reaction solution was centrifuged to precipitate proteins. Then, the supernatant was collected and subjected to LC-MS/MS analysis. The results were analyzed as follows:
The test substance was quantified, and time-dependent change in its residual amount was logarithmically plotted. The rate of metabolism was calculated from the slope.
The ratio of the rate of metabolism in the presence of quinidine added at 4 μM (final concentration) to the reaction solution to that in the absence of quinidine was used as the contribution ratio of enzymes other than CYP2D6. […] Specifically, it was calculated according to the formula: Contribution ratio (%)={1−(Rate of metabolism [in the presence of quinidine]/Rate of metabolism [in the absence of quinidine])}×100 The smaller numeric value of the contribution ratio of CYP2D6 means the small contribution of CYP2D6.

CYP2D6 [2] = target: T1, CYP2D6; assay: CYP2D6 inhibition screening test (bufuralol 1'-hydroxylation, pooled human liver microsomes); assay type: in vitro ADME; details: substrate bufuralol, 37° C. 10 min
Method: CYP2D6 Inhibition Screening Test
Bufuralol hydrochloride was purchased from Toronto Research Chemicals Inc., and pooled human liver microsomes were purchased from Xenotech, LLC.
Bufuralol hydrochloride was dissolved in DMSO at a concentration of 1.0 mM and then diluted 20-fold with distilled water.
• 1. A 10 mM solution of a test drug in DMSO was serially diluted with DMSO at four 5-fold dilutions to prepare 10, 2, 0.4 and 0.08 mM DMSO solutions. • 2. Each test drug solution of step 1 or DMSO was diluted 160-fold with the human liver microsome solution and dispensed at a concentration of 80 μL/well to a microplate. • 3. 10 μL of the substrate solution and 10 μL of the β-NADPH solution were added to each well of step 2, and the mixture was incubated at 37° C. for 10 min. • 4. The reaction was terminated by the addition of 300 μL of methanol. • 5. The reaction mixture was filtered and analyzed by LC-MS/MS. 3-4 Quantification and Calculation
The amount of 1′-hydroxybufuralol formed was determined by LC-MS/MS, and this value was used as the metabolic activity value of CYP2D6 in each well. The residual activity of each sample-supplemented group was determined by comparison with the activity in the well containing DMSO used as a test drug. IC50 values in CYP2D6 inhibition were determined from the test drug concentrations. […]

Substance	CYP2D6 contribution ratio (CYP2D6 [1])	IC50 (CYP2D6 [2]) [µM]
6-(2-{4-[4-Bromo-3-(2-methoxyethoxy)benzyl]piperidin-1-yl}ethyl)-3,4-dihydro-2H-chromen-4-ol benzenesulfonate (salt) [Compound 5-1]	39*) %	34
(+)-6-(2-{4-[4-Bromo-3-(2-methoxyethoxy)benzyl]piperidin-1-yl}ethyl)-3,4-dihydro-2H-chromen-4-ol benzenesulfonate (salt) [Compound 5-12]	0%	42.5
